Reference: ChEMBL document CHEMBL1130417 (J Med Chem, 1997)

Chains of the proteins cited; added tags and fusions are not shown.
UniProt P33535, whole entry: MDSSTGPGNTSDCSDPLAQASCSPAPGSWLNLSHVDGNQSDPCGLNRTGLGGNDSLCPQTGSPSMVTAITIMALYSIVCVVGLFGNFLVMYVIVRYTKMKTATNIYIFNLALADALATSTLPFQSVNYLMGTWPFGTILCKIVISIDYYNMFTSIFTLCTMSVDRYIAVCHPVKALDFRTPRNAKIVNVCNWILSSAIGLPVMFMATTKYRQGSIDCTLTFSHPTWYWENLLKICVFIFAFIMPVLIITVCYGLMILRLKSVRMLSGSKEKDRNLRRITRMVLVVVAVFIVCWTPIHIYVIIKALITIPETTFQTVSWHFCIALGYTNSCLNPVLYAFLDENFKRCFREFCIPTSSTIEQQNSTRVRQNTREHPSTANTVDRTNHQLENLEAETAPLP

Molecular target: Mu-type opioid receptor (Rattus norvegicus, UniProt P33535)
Assay: Inhibition of radioligand [3H]DAMGO binding to rat brain Opioid receptor mu 1 […]
Summary of the method: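 Rat brain membranes were labelled with [3H]DAMGO (1–3 nM) for 4 h at 25 °C in 50 mM Tris-HCl pH 7.4 with protease inhibitor cocktail. Nonspecific binding was set with 20 μM levallorphan. Displacement used 8–10 drug concentrations, run twice, with drug diluted in Tris pH 7.4 containing 1 mg/mL BSA. IC50 and slope factor came from curve fitting.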

| Structure (SMILES) | pIC50 |
| --- | --- |
| C=CCN1C[C@@H](C)N([C@H](c2ccc(C(=O)N(CC)CC)cc2)c2cccc(O)c2)C[C@@H]1C (single isomer, unassigned) | 6.78 |
| C=CCN1C[C@H](C)N([C@H](c2ccc(C(=O)N(CC)CC)cc2)c2cccc(O)c2)C[C@H]1C (stereo in doubt; (-)-1) | 5.63 |

pIC50: −log10 of the molar value.
